Ab-91 heavy chain CDR variants: yeast mating affinities

Source: Engelhart et al. 2022 (doi:10.1038/s41597-022-01779-4), MIT Lincoln Laboratory and A-Alpha Bio; data file from the FLAb repository.

Target peptide (SARS-CoV-2 spike, HR2 region): PDVDLGDISGINAS

Parent: Ab-91, a human scFv built as VL, the linker GGGGSGGGGSGGGGS, VH. Only the CDRs of the heavy chain vary.
VL: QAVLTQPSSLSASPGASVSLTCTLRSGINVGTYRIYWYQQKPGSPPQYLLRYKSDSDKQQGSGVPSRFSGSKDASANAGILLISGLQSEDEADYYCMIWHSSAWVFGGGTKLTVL
VH: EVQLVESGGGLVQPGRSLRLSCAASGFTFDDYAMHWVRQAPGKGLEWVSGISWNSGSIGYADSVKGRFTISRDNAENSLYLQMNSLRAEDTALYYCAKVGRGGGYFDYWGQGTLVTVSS

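Phage display of a naive human antibody library on the peptide gave the parent. In library AAYL51, one, two or three CDR residues were substituted; doubles and triples were drawn at random. The scFvs were displayed on barcoded MATa yeast, the peptide on MATalpha yeast. Binding brings cells together so that they mate, and sequencing counts the barcode pairs among the diploids. Each replicate has its own calibration line, from reference interactions of the BCL2 family. Each pool was mated in three replicate cultures.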

Each variant's VH is given in full. All variants listed here change S63 of the VH, counted from its first residue. Kd is apparent (estimated from mating counts) and averaged on the log scale over replicates with a signal. Smaller is tighter. "no signal" marks a missing value. The strain was present, yet no cells mated with the target were sequenced in any replicate, which points to weak or no binding.

The variant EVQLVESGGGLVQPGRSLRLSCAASGFTFDDYAMHWVRQAPGKGLEWVSFISWNSGSIGYADYVKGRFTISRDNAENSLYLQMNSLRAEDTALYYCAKVGRGGGYFDYWGQGTLVTVSS showed 79 µM (1 of 3 replicates). The variant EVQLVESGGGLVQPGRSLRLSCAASGFTFDDYAMHWVRQAPGKGLEWVSKISWYSGSIGYADGVKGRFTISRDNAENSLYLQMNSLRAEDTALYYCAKVGRGGGYFDYWGQGTLVTVSS showed no signal (0 of 3 replicates). With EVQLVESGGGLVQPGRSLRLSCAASGFTFDDYAMHWVRQAPGKGLEWVSGISWKSGSIGYADTVKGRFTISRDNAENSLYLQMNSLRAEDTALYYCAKVGRGGGYFYYWGQGTLVTVSS the result was 75 µM (2 of 3 replicates). For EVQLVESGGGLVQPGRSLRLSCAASGFTFDDYAMHWVRQAPGKGLEWVSGISWNSGSIGYADMVKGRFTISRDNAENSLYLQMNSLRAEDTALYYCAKVGIGGGYFGYWGQGTLVTVSS, the assay gave 7.2 µM (1 of 3 replicates). The variant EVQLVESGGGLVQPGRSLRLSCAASGFTFDDYKMHWVRQAPGKGLEWVSGISWNSGSIGYADGVKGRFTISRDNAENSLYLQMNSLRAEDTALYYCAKVGRGGGMFDYWGQGTLVTVSS showed no signal (0 of 3 replicates). The variant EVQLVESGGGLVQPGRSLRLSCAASGDTFDDYAMHWVRQAPGKGLEWVSGISWNSGSIGYADGVKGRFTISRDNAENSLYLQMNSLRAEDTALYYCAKVGRGYGYFDYWGQGTLVTVSS showed no signal (0 of 3 replicates). The variant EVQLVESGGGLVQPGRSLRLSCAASGFEFDDYAMHWVRQAPGKGLEWVSGISWNSQSIGYADYVKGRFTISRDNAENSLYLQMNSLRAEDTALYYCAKVGRGGGYFDYWGQGTLVTVSS showed no signal (0 of 3 replicates). The variant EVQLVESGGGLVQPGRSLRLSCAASGFTFDDHAMHWVRQAPGKGLEWVSGISWNSGSIGYADHVKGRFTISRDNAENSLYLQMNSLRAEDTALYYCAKVGRGGGYNDYWGQGTLVTVSS gave no signal (0 of 3 replicates). With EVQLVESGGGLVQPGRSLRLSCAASFFTFDDYAMHWVRQAPGKGLEWVSGISWNQGSIGYADHVKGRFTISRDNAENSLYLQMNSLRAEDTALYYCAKVGRGGGYFDYWGQGTLVTVSS the result was no signal (0 of 3 replicates).

The variant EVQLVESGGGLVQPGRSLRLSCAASGFTFDDYAMHWVRQAPGKGLEWVSGISWNSGYIGYADWVKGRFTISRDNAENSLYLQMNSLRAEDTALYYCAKVGRGGGYFDYWGQGTLVTVSS showed no signal (0 of 3 replicates). The variant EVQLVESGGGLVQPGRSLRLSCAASGFTFDDYAMHWVRQAPGKGLEWVSGISENSGSIGYADYVKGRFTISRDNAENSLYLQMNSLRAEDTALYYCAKVGRGGGYFDYWGQGTLVTVSS showed 11 µM (1 of 3 replicates). The variant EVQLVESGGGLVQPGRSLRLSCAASGFTFDDYAMHWVRQAPGKGLEWVSGISWNSCSIGIADCVKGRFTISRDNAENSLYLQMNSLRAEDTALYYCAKVGRGGGYFDYWGQGTLVTVSS gave 1.4 µM (3 of 3 replicates). The variant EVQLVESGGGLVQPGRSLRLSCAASGFTFQPYAMHWVRQAPGKGLEWVSGISWNSGSIGYADKVKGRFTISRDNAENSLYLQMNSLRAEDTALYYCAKVGRGGGYFDYWGQGTLVTVSS showed no signal (0 of 3 replicates). The variant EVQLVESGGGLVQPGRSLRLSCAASGFTFDSYAMHWVRQAPGKGLEWVSGIWWNSGSIGYADNVKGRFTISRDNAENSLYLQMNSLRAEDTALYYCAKVGRGGGYFDYWGQGTLVTVSS gave no signal (0 of 3 replicates). The variant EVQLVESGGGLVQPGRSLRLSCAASGFTFRDYAMHWVRQAPGKGLEWVSGISWNSGSIGYADLVMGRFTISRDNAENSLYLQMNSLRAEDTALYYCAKVGRGGGYFDYWGQGTLVTVSS showed 40 nM (3 of 3 replicates). For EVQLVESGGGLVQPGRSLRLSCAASGFTFDDYPMHWVRQAPGKGLEWVSGISWNSGSIRYADPVKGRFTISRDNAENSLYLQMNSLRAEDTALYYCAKVGRGGGYFDYWGQGTLVTVSS, the assay gave 1.0 mM (2 of 3 replicates). The variant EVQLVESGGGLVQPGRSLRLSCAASGFTFDDYAMHWVRQAPGKGLEWVSGISWNSGSIGYADVVKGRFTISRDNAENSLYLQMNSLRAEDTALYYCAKVGRGGGYFDYWGQGTLVTVSS gave 33 µM (1 of 3 replicates). The variant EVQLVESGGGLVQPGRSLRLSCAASQFTFDDYAMHWVRQAPGKGLEWVSGISWNSGSIGYADVVKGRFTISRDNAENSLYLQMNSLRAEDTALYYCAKVCRGGGYFDYWGQGTLVTVSS gave 720 nM (1 of 3 replicates).

With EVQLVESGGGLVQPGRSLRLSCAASGFTFHDYAMHWVRQAPGKGLEWVSGIPWNSGSIGYADQVKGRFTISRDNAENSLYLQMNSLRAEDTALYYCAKVGRGGGYFDYWGQGTLVTVSS the result was 110 µM (3 of 3 replicates). For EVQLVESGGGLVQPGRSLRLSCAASGFTFDDYAMHWVRQAPGKGLEWVSGISWNSGSIGYADALKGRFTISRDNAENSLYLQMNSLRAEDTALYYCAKVGRGGGYFDYWGQGTLVTVSS, the assay gave 22 nM (3 of 3 replicates). With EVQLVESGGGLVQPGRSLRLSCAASGFTFDDYALHWVRQAPGKGLEWVSGISWNSGSIGYADNVKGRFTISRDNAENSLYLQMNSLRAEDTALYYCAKVGRIGGYFDYWGQGTLVTVSS the result was 250 µM (2 of 3 replicates). The variant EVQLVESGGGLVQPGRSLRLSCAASGFTFDDSAMHWVRQAPGKGLEWVSGISWNSGSIGYADMVKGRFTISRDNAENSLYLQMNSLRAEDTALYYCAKVGRGVGYFDYWGQGTLVTVSS showed no signal (0 of 3 replicates). For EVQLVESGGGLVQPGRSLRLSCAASGFTFDDYAMHWVRQAPGKGLEWVSGISWNSGCIGNADNVKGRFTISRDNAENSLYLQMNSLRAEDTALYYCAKVGRGGGYFDYWGQGTLVTVSS, the assay gave no signal (0 of 3 replicates). The variant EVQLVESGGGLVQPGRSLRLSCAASGFTFDDYAMKWVRQAPGKGLEWVSGISWNSGSIGYADKVKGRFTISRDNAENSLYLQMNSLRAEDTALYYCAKVGRGCGYFDYWGQGTLVTVSS gave no signal (0 of 3 replicates). With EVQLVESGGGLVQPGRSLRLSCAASGFTFDDYAMHWVRQAPGKGLEWVSGISWNSGSIGYADEVKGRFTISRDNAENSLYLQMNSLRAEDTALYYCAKVGRGGPYFDYWGQGTLVTVSS the result was no signal (0 of 3 replicates).

The closing 2 entries, repeated:

For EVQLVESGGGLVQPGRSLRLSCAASGFTFDDYAMKWVRQAPGKGLEWVSGISWNSGSIGYADKVKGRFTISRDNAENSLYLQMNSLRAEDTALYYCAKVGRGCGYFDYWGQGTLVTVSS, the assay gave no signal (0 of 3 replicates).
For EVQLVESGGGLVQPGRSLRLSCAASGFTFDDYAMHWVRQAPGKGLEWVSGISWNSGSIGYADEVKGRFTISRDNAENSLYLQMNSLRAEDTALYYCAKVGRGGPYFDYWGQGTLVTVSS, the assay gave no signal (0 of 3 replicates).

Three control strains display no target. For library AAYL51, 21% of the pairings with them gave a signal, with a median of 34 µM and one signal in twenty below 1.8 µM, so weak values seen in few replicates may be background. In this assay the parent's reference entry averaged 72 nM; its copy inside this library read 7.5 nM.